For 101 molecules, inhibition results are on record in PubChem BioAssay AID1515 (The Scripps Research Institute Molecular Screening Center, 2009).

Protein sequences, listed by entry. Tags and fused reporters are not part of them. Lines headed by an entry give the natural chain unless they say otherwise; changes in a name come on top.
UniProt O75884: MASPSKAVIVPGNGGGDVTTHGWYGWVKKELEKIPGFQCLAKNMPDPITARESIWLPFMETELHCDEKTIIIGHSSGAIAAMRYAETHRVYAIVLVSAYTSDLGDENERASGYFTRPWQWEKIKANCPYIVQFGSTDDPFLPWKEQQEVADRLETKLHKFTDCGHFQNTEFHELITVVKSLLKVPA

Values joined by “and” are separate entries in the source; they are usually repeats but may differ in a detail not shown here. Equal values may be shown once. This is a selection; strong and weak results do not stand in their true shares. Active and inactive are the calls of the source.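 How the source made its calls: active means inhibition above the campaign mean of all tested compounds plus 3 SD (cut at about 14% in these data); inactive means the rest.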

The target in the assay is Serine hydrolase RBBP9 (Homo sapiens) (UniProt O75884). The experiment in a line: blockers of RBBP9 serine hydrolase labeling – biochemical, fluorescence polarization, FP-Rh probe, HTS, primary screen (AID 1515).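 Further: plate controls were DMSO wells with RBBP9 for no effect and wells lacking RBBP9 protein for full effect.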 To be noted: recombinant RBBP9, FP-Rh probe fluorescence polarization; at 7.94 µM; active compounds read high. On the technique in general: Fluorescence polarisation rises when a labelled molecule tumbles more slowly, as on binding a larger partner.
What is called inhibition is the relative decrease from the control value, in per cent. On to `CN(C)C(=O)Oc1noc2ccccc12`, for which the inhibition was inactive: 13.7%.

On to `O=c1c2cc([N+](=O)[O-])ccc2[nH]c2c([N+](=O)[O-])cc([N+](=O)[O-])cc12`, for which the inhibition was inactive: -0.56%.

Consider `Cc1ccccc1OP(=O)(Nc1ccccn1)Oc1ccccc1C`, for which the inhibition was inactive: -8.05%.

Consider `CCC(=O)N1C2C3N(C(=O)CC)C1C1N(C(=O)CC)C(C(N1C(=O)CC)N3C(=O)CC)N2C(=O)CC`, for which the inhibition is inactive: -11.8%.

For `CC(=O)NC(SC(=S)N(CC(C)C)CC(C)C)C(Cl)(Cl)Cl` (stereo unspecified), the inhibition is inactive: -5.11%.

As for `Cc1ccc(OP(=O)(Nc2ccccn2)Oc2ccc(C)cc2)cc1`, the inhibition was inactive: -0.28%.

`COC(=O)c1cc2c(s1)N=C(c1ccccc1)N(C)P2(=O)N1CCOCC1` (stereo unspecified): the inhibition was inactive: -1.09%.

Take `Cc1ccc(NP(=O)(Oc2cccc(C)c2)Oc2cccc(C)c2)nc1`: the inhibition is inactive: -2.39%.

For the molecule `CCOC(=O)NC(Sc1ccccc1)C(Cl)(Cl)Cl` (stereo unspecified), the inhibition was inactive: -1.11%.

For `c1ccc(-c2nn[nH]n2)c(-c2nn[nH]n2)c1`, the inhibition was inactive: 7.54%.

As for `CCNC(=S)/N=C(\N)N[N+](=O)[O-]`, the inhibition is inactive: -4.63%.

In the case of `O=C(NC1CCS(=O)(=O)C1)NP(=S)(Oc1ccccc1)Oc1ccccc1` (stereo unspecified), the inhibition was inactive: -4.28%.

Turning to `CC(=O)Nc1ccc(Oc2c([N+](=O)[O-])cc([N+](=O)[O-])cc2[N+](=O)[O-])cc1`, the inhibition was inactive: -9.21%.

Regarding `CC(=O)Nc1ccc([As](=O)(O)O)c(O)c1`, the inhibition is inactive: -0.26%.

On to `CC(C)(C)C(=O)NC(Sc1ccccc1)C(Cl)(Cl)Cl` (stereo unspecified), for which the inhibition is inactive: 6.22%.

Consider `CCOc1ccc(C2=NCC(CBr)S2)cc1` (stereo unspecified), for which the inhibition is inactive: -0.28%.

Turning to `O=P1(Nc2nc3ccc(Cl)cc3s2)COc2ccccc2O1` (stereo unspecified), the inhibition is inactive: 0.9%.

Regarding `c1nnnn1CCn1cnnn1`, the inhibition was inactive: -7.49%.

For `CC(C)C(=O)NC(Sc1ccccc1)C(Cl)(Cl)Cl` (stereo unspecified), the inhibition was inactive: -5.01%.

In the case of `O=P(Nc1nccs1)(c1ccccc1)c1ccccc1`, the inhibition is inactive: -0.1%.

As to `O=C(OC1CN2CCC1CC2)c1cccc(Cl)c1` (stereo unspecified), the inhibition was inactive: -7.01%.

Consider `Nc1ccc([As](=O)(O)c2ccc([N+](=O)[O-])cc2)cc1`, for which the inhibition is inactive: -3.66%.

As to `C(Cc1nn[nH]n1)Cc1nn[nH]n1`, the inhibition is inactive: -3.23%.

For the molecule `O=[As](O)(c1ccccc1)c1ccc(O)cc1`, the inhibition was inactive: -13.4%.

As to `CC(=O)NC(SC(=S)N(C)C)C(Cl)(Cl)Cl` (stereo unspecified), the inhibition was inactive: -9.38%.

Consider `O=[N+]([O-])c1ncn(CCn2cnc([N+](=O)[O-])n2)n1`, for which the inhibition is inactive: -2.19%.

For `O=P(Nc1nc2ccccc2s1)(c1ccccc1)c1ccccc1`, the inhibition was inactive: -6.42%.

For the molecule `O=P(Nc1ccccn1)(c1ccc(Br)cc1)c1ccc(Br)cc1`, the inhibition was inactive: 1.27%.

As for `O=C(O)CNc1ccc([As](=O)(O)O)cc1`, the inhibition is inactive: 4.24%.

Regarding `O=[N+]([O-])c1cccc(NC2=NCC(CBr)S2)c1` (stereo unspecified), the inhibition is inactive: -8.5%.

As to `O=[N+]([O-])c1ncn(CCn2ncnc2[N+](=O)[O-])n1`, the inhibition was inactive: -4.11%.

`CC(C)(C)C(=O)NC(Sc1ccncn1)C(Cl)(Cl)Cl` (stereo unspecified): the inhibition was inactive: -7.31%.

In the case of `O=C(Nc1cc([As](=O)(O)O)ccc1O)c1ccccc1`, the inhibition was inactive: 6.01%.

In the case of `CC1CCN(C(=O)Oc2c(Cl)cc(Cl)c3cccnc23)CC1`, the inhibition is inactive: -1.38%.

For the molecule `CN(C)C(=O)OCCc1n(C)cc[n+]1C`, the inhibition was inactive: -5.34%.

With `CC(C)=N/N=C(\N)N[N+](=O)[O-]`, the inhibition was inactive: 2.66%.

Take `CCN(/C(=N/P(=O)(N1CCOCC1)N1CCOCC1)N1CCOCC1)c1ccc(OC)cc1`: the inhibition is inactive: -4.92%.

For the molecule `C[N+]1=C2C=CC=CC=C2SC12C([N+](=O)[O-])=CC([N+](=O)[O-])=C[C-]2[N+](=O)[O-]` (stereo unspecified), the inhibition was inactive: -2.31%.

As to `Nc1ccc([As](=O)(O)c2ccc(N)cc2)cc1`, the inhibition is inactive: -0.12%.

Turning to `CCc1nc2c(n1)c1c(non1O)c1c2no[n+]1[O-]`, the inhibition was inactive: 3.69%.

For the molecule `O=[N+]([O-])c1cc([N+](=O)[O-])c(CCNc2ccccc2)c([N+](=O)[O-])c1`, the inhibition was active: 34.3%.

On to `Cc1ccc(NP(=O)(Oc2ccccc2)Oc2ccccc2)nc1`, for which the inhibition is inactive: -3.97%.

For the molecule `O=[N+]([O-])c1cccc2n[nH]nc12`, the inhibition is inactive: -4.62%.

Turning to `CC(=O)N1C2C3N(C(C)=O)C1C1N(C(C)=O)C(C(N1C(C)=O)N3C(C)=O)N2C(C)=O`, the inhibition is inactive: -5.09%.

For the molecule `COc1ccc(C2=NCC(CBr)S2)cc1` (stereo unspecified), the inhibition was inactive: 6.69%.

As to `Cc1c2non([O-])c-2c(C)[n+](=O)[n+]1[O-]`, the inhibition is inactive: -4.01%.

With `O=C(NC(Sc1ccncn1)C(Cl)(Cl)Cl)c1ccccc1` (stereo unspecified), the inhibition was inactive: -11%.

On to `Oc1ccccc1CNc1ccccn1`, for which the inhibition was inactive: -2.75%.

In the case of `CC(C)CC(=O)NC(Sc1ccc(Cl)cc1)C(Cl)(Cl)Cl` (stereo unspecified), the inhibition was inactive: -9.04%.

With `Nc1cc(N)c2nonc2c1[N+](=O)[O-]`, the inhibition was inactive: -9.17%.

On to `Clc1ccc(Cl)c(NC2=NCC(CBr)S2)c1` (stereo unspecified), for which the inhibition is inactive: -3.58%.

For `CN1CCCC(OC(=O)C(c2ccccc2)c2ccccc2)C1` (stereo unspecified), the inhibition was inactive: -4.77%.

For `Cc1ccc(OP(=O)(Nc2nccs2)Oc2ccc(C)cc2)cc1`, the inhibition is inactive: 1.57%.

On to `COc1ccccc1OP(=O)(Nc1ccc(C)cn1)Oc1ccccc1OC`, for which the inhibition was inactive: 1.34%.

Take `Cc1ccc(N/C(=N/P(=O)(N2CCOCC2)N2CCOCC2)N2CCOCC2)cc1`: the inhibition is inactive: -2.4%.

Consider `NC(=O)c1cc([N+](=O)[O-])cc([N+](=O)[O-])c1N`, for which the inhibition was inactive: -1.7%.

Take `Nc1cccc2ccc([As](=O)(O)O)cc12`: the inhibition is inactive: -2.34%.

`CCN(N=Nc1nonc1N)c1nonc1N`: the inhibition was inactive: -7.53%.

As for `Cc1ccc(NP(=O)(Oc2ccccc2F)Oc2ccccc2F)nc1`, the inhibition was inactive: -5.97%.

Consider `CCOP(=O)(Nc1ccccc1)OCC`, for which the inhibition was inactive: -7.87% and inactive: -2.82%.

For the molecule `Cc1cc(SC(NC(=O)c2ccc(F)cc2)C(Cl)(Cl)Cl)ncn1` (stereo unspecified), the inhibition was inactive: -1.59%.

`O=P(Nc1nc2ccc(Cl)cc2s1)(c1ccccc1)c1ccccc1`: the inhibition is inactive: -11.6%.

As for `O=C(O)c1ccccc1[As](=O)(O)O`, the inhibition is inactive: -3.32%.

For the molecule `CC(=O)Nc1ccc([As](=O)(O)O)cc1`, the inhibition is inactive: -5.34%.

`O=[N+]([O-])c1cc([N+](=O)[O-])c(-c2ccn[nH]2)s1`: the inhibition is inactive: 0.55%.

On to `CCN(CC)C(=S)SC(NC=O)C(Cl)(Cl)Cl` (stereo unspecified), for which the inhibition is inactive: -7.53%.

Consider `CC(C)NC(=O)NP(=O)(Oc1ccccc1)Oc1ccccc1`, for which the inhibition is inactive: -3.23%.

With `ClCCSc1nnc(-c2cccnc2)o1`, the inhibition was inactive: 6.91%.

Turning to `CC(C)c1ccc(OP(=O)(Nc2ccccn2)Oc2ccccc2F)cc1` (stereo unspecified), the inhibition is inactive: -5.51%.

In the case of `Cc1ccc(OP(=O)(Nc2ccc([N+](=O)[O-])cn2)Oc2ccc(C)cc2)cc1`, the inhibition is inactive: 0.26%.

Consider `Cc1ccc2nc3c(c(C)c2c1)CC(C(Cl)Cl)S3` (stereo unspecified), for which the inhibition is inactive: -10.1%.

Consider `O=[As](O)(c1ccc(O)cc1)c1ccccc1O`, for which the inhibition is inactive: -5.21%.

`C[As](=O)(O)c1cccc(C(=O)O)c1`: the inhibition was inactive: 2.49%.

With `COc1ccc(N/C(=N/P(=O)(N2CCOCC2)N2CCOCC2)N2CCOCC2)cc1`, the inhibition is inactive: -4.2%.

With `COc1cc(I)ccc1[As](=O)(O)O`, the inhibition was inactive: 0.09%.

As to `COc1ccc2nc(NP(=O)(c3ccccc3)c3ccccc3)sc2c1`, the inhibition is inactive: -6.15%.

`Cc1c2c(nc3ccccc13)SC(C(Cl)Cl)C2` (stereo unspecified): the inhibition was inactive: -3.5%.

Turning to `Cc1cc(=O)[nH]c(N[N+](=O)[O-])n1`, the inhibition is inactive: -7.58%.

Consider `O=C(OC1CN2CCC1CC2)C12CC3CC(CC(C3)C1)C2` (stereo unspecified), for which the inhibition was inactive: -11.1%.

Regarding `CCC(C)N(CC(C)C)C(=S)SC(NC(C)=O)C(Cl)(Cl)Cl` (stereo unspecified), the inhibition is inactive: 0.54%.

`CCOC(=O)c1ccc(NC(=O)C(C)(CCl)SC)cc1` (stereo unspecified): the inhibition is inactive: 1.61%.

In the case of `O=C(COc1ccccc1)OC1CN2CCC1CC2` (stereo unspecified), the inhibition is inactive: -1.61%.

`COP1(=S)c2c(C)nn(CCC#N)c2N=C(c2ccc(F)cc2)N1C` (stereo unspecified): the inhibition is inactive: -5.99%.

For `O=P(Nc1ccccn1)(c1cccc2ccccc12)c1cccc2ccccc12`, the inhibition was inactive: 1.99%.

Consider `Cc1cc(SC(NC=O)C(Cl)(Cl)Cl)ncn1` (stereo unspecified), for which the inhibition is inactive: -4.65%.

On to `O=[N+]([O-])c1ccc(Nc2ccc(Oc3ccc([N+](=O)[O-])cc3[N+](=O)[O-])cc2)c([N+](=O)[O-])c1`, for which the inhibition was inactive: 0.46%.

For the molecule `CCOC(=O)Nc1cccc([As](=O)(O)O)c1`, the inhibition is inactive: -8.17%.

As to `Cc1cc(SC(NC(=O)c2ccccc2)C(Cl)(Cl)Cl)nc(C(C)C)n1` (stereo unspecified), the inhibition is inactive: -10.7%.

Turning to `CCOC(=O)Nc1ccc([As](=O)(O)O)c(O)c1`, the inhibition is inactive: -2.17%.

For `Nc1cccc([As](=O)(O)c2ccccc2)c1`, the inhibition was inactive: -6%.

Consider `O=P1(Nc2ccc(Br)cn2)COc2ccccc2OC1`, for which the inhibition is inactive: 0.03%.

Take `Cc1ccc(OCC(=O)OC2CN3CCC2CC3)cc1` (stereo unspecified): the inhibition was inactive: -7.23%.

On to `O=[As](O)(c1cccs1)c1cccs1`, for which the inhibition is inactive: 4.69%.

Take `O=P1(Nc2ncccn2)COc2ccccc2OC1`: the inhibition is inactive: 0.37%.

With `CN(C)C1(CNC(=O)c2ccc(S(C)(=O)=O)cc2)CCCCC1`, the inhibition is inactive: -2.25%.

As for `O=C(/C=C/c1ccccc1)OC1CN2CCC1CC2` (stereo unspecified), the inhibition was inactive: -4.04%.

Take `CC1CCC(C(C)C)C(OP(=O)(Nc2ccccn2)c2ccccc2)C1` (stereo unspecified): the inhibition is inactive: -11.7%.

With `Cc1nn(-c2ccccc2)c2c1P(=O)(N1CCOCC1)N(C)C(c1ccccc1)=N2` (stereo unspecified), the inhibition was inactive: -12.5%.

For `CC(C)/C=N\N=C(\N)N[N+](=O)[O-]`, the inhibition was inactive: -2.92%.

With `CN(C(=O)Cc1ccc(Cl)c(Cl)c1)[C@@H]1CCCC[C@H]1N1CCCC1`, the inhibition was inactive: -1.57%.

Regarding `CC1(CBr)Cn2c(nc3ccccc3c2=O)S1` (stereo unspecified), the inhibition was inactive: -14.3%.
